This note sets out measurements from ChEMBL document CHEMBL1201862, “PubChem BioAssay data set” (2004).

Some of the results follow. Only a part of the results of these assays is listed, not drawn at random. The source made the active and inactive calls. The rule behind the calls is not given here.

In the assay the target is T1, Transcriptional regulator ERG (Homo sapiens) (UniProt P11308).
T1 sequence (whole entry): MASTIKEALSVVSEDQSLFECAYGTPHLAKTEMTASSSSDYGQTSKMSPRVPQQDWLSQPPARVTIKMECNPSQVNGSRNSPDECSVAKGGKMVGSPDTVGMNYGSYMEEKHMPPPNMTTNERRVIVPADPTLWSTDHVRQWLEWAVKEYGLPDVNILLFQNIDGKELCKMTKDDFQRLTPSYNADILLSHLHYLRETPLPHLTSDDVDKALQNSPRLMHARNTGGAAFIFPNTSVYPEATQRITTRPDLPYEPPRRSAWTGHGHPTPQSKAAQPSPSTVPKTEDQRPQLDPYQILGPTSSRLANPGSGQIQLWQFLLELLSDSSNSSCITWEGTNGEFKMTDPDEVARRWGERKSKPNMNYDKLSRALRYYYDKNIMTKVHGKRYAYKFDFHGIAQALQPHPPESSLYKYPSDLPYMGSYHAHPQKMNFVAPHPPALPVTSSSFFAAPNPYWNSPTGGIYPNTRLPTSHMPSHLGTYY
Description: qHTS for Small Molecule Inhibitors of the ERG Ets/DNA interaction. It counts as functional. (In general: qHTS replaces the single test concentration by a dilution series.)
Regarding `O=C(O)/C=C\C(=O)O`, the Potency result was “inactive”.
